ChEMBL document CHEMBL1123961 (J Med Chem, 1988)

Protein sequences, listed by entry. Tags and fused reporters are not part of them. Lines headed by an entry give the natural chain unless they say otherwise; changes in a name come on top.
UniProt P08909: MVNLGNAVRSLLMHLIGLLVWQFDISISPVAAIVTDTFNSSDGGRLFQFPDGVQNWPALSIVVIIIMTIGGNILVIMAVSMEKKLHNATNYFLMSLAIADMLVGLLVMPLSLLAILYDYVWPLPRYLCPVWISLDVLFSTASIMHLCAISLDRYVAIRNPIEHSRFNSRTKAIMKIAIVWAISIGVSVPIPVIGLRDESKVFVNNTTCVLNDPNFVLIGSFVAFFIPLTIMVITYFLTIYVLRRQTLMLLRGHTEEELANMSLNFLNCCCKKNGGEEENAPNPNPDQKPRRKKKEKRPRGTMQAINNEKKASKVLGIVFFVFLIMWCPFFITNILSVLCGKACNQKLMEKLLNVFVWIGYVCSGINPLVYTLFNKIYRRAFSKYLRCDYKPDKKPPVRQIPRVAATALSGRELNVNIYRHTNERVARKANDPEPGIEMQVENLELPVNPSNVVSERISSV
UniProt P14842: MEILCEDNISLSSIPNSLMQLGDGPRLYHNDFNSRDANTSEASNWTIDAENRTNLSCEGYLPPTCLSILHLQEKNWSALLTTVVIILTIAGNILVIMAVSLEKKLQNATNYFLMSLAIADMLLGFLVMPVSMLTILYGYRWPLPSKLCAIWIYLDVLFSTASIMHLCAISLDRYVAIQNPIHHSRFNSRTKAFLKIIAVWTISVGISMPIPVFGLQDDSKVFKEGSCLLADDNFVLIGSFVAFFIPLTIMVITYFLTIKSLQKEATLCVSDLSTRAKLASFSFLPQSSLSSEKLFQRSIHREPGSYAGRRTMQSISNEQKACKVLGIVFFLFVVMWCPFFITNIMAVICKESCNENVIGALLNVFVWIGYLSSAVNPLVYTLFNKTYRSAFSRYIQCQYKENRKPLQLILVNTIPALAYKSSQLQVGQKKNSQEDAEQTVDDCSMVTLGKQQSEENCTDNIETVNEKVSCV

What was measured:
Format in all cases: tissue-based
[1] = target: T1, Serotonin receptor 2a and 2c (5HT2A and 5HT2C) (Rattus norvegicus, UniProt P08909+P14842); assay: Binding affinity at [3H]DOB labeled sites of 5-hydroxytryptamine 2 receptor determined using [125I]- DOI as radioligand in rat frontal cortex
[2] = target: T1, Serotonin receptor 2a and 2c (5HT2A and 5HT2C); assay: Binding affinity at [3H]KET labeled sites of 5-hydroxytryptamine 2 receptor determined using [125I]- DOI as radioligand in rat frontal cortex
[3] = target: T1, Serotonin receptor 2a and 2c (5HT2A and 5HT2C); assay: Binding affinity at 5-hydroxytryptamine 2 receptor was determined using [125I]- DOI as radioligand in rat frontal cortex
[4] = target: T1, Serotonin receptor 2a and 2c (5HT2A and 5HT2C); assay: Binding affinity at [3H]DOB labeled sites of 5-hydroxytryptamine 2 receptor was determined using [125I]- DOI as radioligand in rat frontal cortex
[5] = target: T1, Serotonin receptor 2a and 2c (5HT2A and 5HT2C); assay: Binding affinity at [3H]KET labeled sites of 5-hydroxytryptamine 2 receptor was determined using [125I]- DOI as radioligand in rat frontal cortex

Row | Structure (SMILES) | Ki [1] [nM] | Ki [2] [nM] | Ki [3] [nM] | Ki [4] [nM] | Ki [5] [nM]
1 | COc1cc(C[C@@H](C)N)c(OC)cc1Br | 0.4 | 25 |  |  | 
2 | O=C(CCCN1CCC2(CC1)C(=O)NCN2c1ccccc1)c1ccc(F)cc1 [SPIPERONE] |  |  | 1.2 | 1.8 | 0.5
